From patent publication US8592403B2, “Diazepine and diazocane compounds as MC4 agonists” (Pfizer Limited, priority 2008, dated 2013)

Protein sequences, listed by entry. Tags and fused reporters are not part of them.
UniProt P32245, whole entry: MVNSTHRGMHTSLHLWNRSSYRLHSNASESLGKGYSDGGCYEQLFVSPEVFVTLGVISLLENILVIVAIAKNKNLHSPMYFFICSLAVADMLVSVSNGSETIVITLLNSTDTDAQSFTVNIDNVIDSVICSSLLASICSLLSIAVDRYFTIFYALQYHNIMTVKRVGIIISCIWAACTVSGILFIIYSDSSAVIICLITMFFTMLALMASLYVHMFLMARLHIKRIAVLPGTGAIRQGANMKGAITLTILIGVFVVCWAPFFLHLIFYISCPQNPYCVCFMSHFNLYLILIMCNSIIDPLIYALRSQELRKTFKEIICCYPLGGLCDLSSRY
UniProt P41968, whole entry: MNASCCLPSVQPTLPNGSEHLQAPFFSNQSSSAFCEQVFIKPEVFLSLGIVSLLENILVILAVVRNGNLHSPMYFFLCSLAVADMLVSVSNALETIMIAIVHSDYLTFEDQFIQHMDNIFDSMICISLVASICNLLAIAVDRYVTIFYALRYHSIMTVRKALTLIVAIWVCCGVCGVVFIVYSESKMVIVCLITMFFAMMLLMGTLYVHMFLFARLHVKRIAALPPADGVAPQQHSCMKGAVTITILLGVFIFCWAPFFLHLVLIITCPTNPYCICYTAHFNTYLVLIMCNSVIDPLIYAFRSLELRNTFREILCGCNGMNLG
UniProt P08684, whole entry: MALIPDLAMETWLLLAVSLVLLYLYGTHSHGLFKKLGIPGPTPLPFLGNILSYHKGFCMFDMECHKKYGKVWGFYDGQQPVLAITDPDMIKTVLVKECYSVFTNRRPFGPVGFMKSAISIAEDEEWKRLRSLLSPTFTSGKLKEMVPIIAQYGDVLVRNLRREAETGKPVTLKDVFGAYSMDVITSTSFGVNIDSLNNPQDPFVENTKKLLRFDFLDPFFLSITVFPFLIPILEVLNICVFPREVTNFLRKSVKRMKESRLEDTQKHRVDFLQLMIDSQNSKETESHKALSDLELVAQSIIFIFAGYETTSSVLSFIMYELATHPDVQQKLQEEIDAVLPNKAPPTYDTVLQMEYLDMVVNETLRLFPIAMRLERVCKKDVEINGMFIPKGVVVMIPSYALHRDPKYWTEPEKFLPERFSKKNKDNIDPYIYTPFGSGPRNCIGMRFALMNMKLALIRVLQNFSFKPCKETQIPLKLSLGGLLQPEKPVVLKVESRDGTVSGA

How the values were obtained:
MC4 receptor = MC4 receptor (Homo sapiens, UniProt P32245); test: MC4 EC50 functional potency (protocol E of US2005/0176772 / WO 2005/077935); conditions: read-out: MC4 EC50
Description: The compounds of formula (I) of the present invention have utility as MCR4 agonists in the treatment of various disease states.
MC5 and MC4 EC50 activity was determined as described by assay protocols D and E, respectively, in US2005/0176772 (pages 28-30).

MC4 receptor (MC4R) = MC4 receptor (MC4R) (Homo sapiens, UniProt P32245); test: Nle4, D-Phe7-α-MSH inhibition at the MC4 receptor (competition binding, SPA, CHO-CRE MC4R membranes); conditions: read-out: MC4 MSH Ki
Text: Nle4, D-Phe7-α-MSH Inhibition at the MC4 Receptor
(§1) Nle4, D-Phe7-α-MSH is a stable analogue of melanocyte-stimulating hormone (MSH), which is an agonist at the MC4 receptor (MC4R). Compounds can be evaluated for their ability to inhibit Nle4, D-Phe7-α-MSH binding to membranes from cells expressing the MC4R using a competition binding assay versus [^125I] Nle4, D-Phe7-α-MSH.
Cells expressing the MC4R were subject to homogenisation and the membrane fragment isolated by differential centrifugation. CHO-CRE MC4R cell membranes were coupled to PVT-PEI-WGA SPA Beads type A for 2 hours, spun at 1000 RPM for 5 min and suspended to a concentration of 300 ug bead/ml (0.15 ug membrane, 15 ug bead per well). Bead/membrane mix was incubated with 0.06 nM [^125I] Nle4, D-Phe7-α-MSH and 11 half-log concentrations of competitor ligand, in duplicate, in a total volume of 50 μl buffer per well (25 mM HEPES, 1 mM MgCl2, 2.5 mM CaCl2, 1% Pluronic F68, 1 complete EDTA protease inhibitor tablet/50 ml pH7). Non-specific binding was determined by the inclusion of 100 nM SHU9119. The reaction was initiated by the addition of bead/membranes and plates were incubated at room temperature for 12 hours (the first hour on a plate shaker), after which the amount of radioactivity present was determined using a Wallac plate counter. Ki values were determined by data analysis using appropriate software.

MC3 receptor (MC3R) = MC3 receptor (MC3R) (Homo sapiens, UniProt P41968); test: Nle4, D-Phe7-α-MSH inhibition at the MC3 receptor (competition binding, SPA, CHO-CRE MC3R membranes); conditions: read-out: MC3 MSH Ki
Text: Nle4, D-Phe7-α-MSH Inhibition at the MC3 Receptor
as §1, with “MC3” for “MC4”, “(MC3R).” for “(MC4R).”, “MC3R” for “MC4R”
Cells expressing the MC3R were subject to homogenisation and the membrane fragment isolated by differential centrifugation. CHO-CRE MC3R cell membranes were coupled to PVT-PEI-WGA SPA Beads type A for 2 hours, spun at 1000 RPM for 5 mins and suspended to a final assay concentration of 800 ug bead/ml (1.2 ug membrane, 40 ug bead per well). Bead/membrane mix was incubated with 0.06 nM [^125I] Nle4, D-Phe7-α-MSH and 11 half-log concentrations of competitor ligand, in duplicate, in a total volume of 50 μl buffer per well (25 mM HEPES, 1 mM MgCl2, 2.5 mM CaCl2, 1% Pluronic F68, 1 complete EDTA protease inhibitor tablet/50 ml pH7). Non-specific binding was determined by the inclusion of 100 nM SHU9119. The reaction was initiated by the addition of bead/membranes and plates were incubated at room temperature for 12 hours (the first hour on a plate shaker), after which the amount of radioactivity present was determined using a Wallac plate counter. Ki values were determined by data analysis using appropriate software.

cytochrome P450 3A4 = cytochrome P450 3A4 (Homo sapiens, UniProt P08684); conditions: 3 µM
Description: High Density Drug-Drug Interactions (DDI) 3 μM Cocktail Screen
A drug interaction is a situation in which a substance affects the activity of another drug, i.e. the effects are increased or decreased, or together they produce a new effect that neither produces on its own. Drug interactions may be the result of various processes but a relatively common one is where one drug affects the pharmacokinetics of another by inhibiting the cytochrome P450 that metabolises it. Because of the importance of these phenomena, assessment of the DDI potential for new chemical entities (NCEs) is considered important early on in the drug discovery process. […]
The substrate cocktail approach for P450 DDI utilizes human liver microsomes together with isoform-specific clinical drug probes and permits the simultaneous measurement of the inhibition of P450 1A2, 2C9, 2D6 & 3A4 activities in a single incubation. […] This method has been thoroughly tested and evaluated using standard compounds.
Appearance of the metabolite of each substrate is measured over time in the presence and absence of the NCE (test compound/inhibitor) at a concentration of 3 μM. The compounds are assessed for their inhibitory potential as a percentage value and interpreted using the following scheme.

EC50 (MC4 receptor): 122 nM
Ki (MC4 receptor (MC4R)): 1390 nM
Ki (MC3 receptor (MC3R)): 5370 nM
inhibition (cytochrome P450 3A4): 41%
Structure (SMILES): CS(=O)(=O)N1CCN(C(=O)[C@@H]2CN(c3ccccn3)C[C@H]2c2ccc(F)cc2F)CCC1c1ccccc1 (stereo partly shown)
